According to US20070071717A1, “Treatment of B cells with IL-21 and B cell activators induces Granzyme B production” (University of Iowa Research Foundation, priority 2005, published 2007):
Entries after “also recorded” stand apart in the source; their conditions may differ.

Columns and labels:
Format in all cases: cell-based, human
[1] = tested on: B-CLL cells; assay: Intracellular flow cytometry for Granzyme B, Granzyme A and Perforin in B-CLL cells; conditions: 18 hours, Brefeldin A for the last hours
Description: Flow cytometry. Antibodies to CD5, CD19, CD27 as well as CD107a were purchased from BD Bioscoences (San Diego, Calif.). IL-21 receptor protein expression was detected using a mAB (clone 152512) from R&D Systems (Minneapolis, Minn.). PKH26 staining was used to identify untreated cells in bystander assays. B-CLL cells were resuspended at a density of 1×10^7 cells/ml in diluent C containing 2 μM PKH26 (both from Sigma, Saint Louis, Mo.). After 3 minutes, the reaction was stopped by adding an equal volume of FBS (HyClone, Ogden, Utah). Subsequently cells were washed 3 times and finally resuspended in AIM-V medium. For flow cytometric Granzyme and Perforin detection, cells were incubated at 1×10^6/ml for 13 hrs, Brefeldin A (Epicentre Technologies, Madison, Wis.) added to a final concentration of […], and cells cultured for 5 more hours. Intracellular staining was performed using a Fix and Perm kit (Caltag Laboratories, Burlingame, Calif.) according to the manufacturer's instructions. Briefly, cells were washed once and resuspended in Fixation Buffer, incubated for 15 minutes at room temperature and washed with PBS. […] Flow cytometric analyses were performed on a FACScan (Becton Dickinson Immunocytometry Systems, San Jose, Calif.) and data analyzed using the program FlowJo (version 6.4.1, Tree Star Inc., Stanford, Calif.).

[2] = tested on: B-CLL cells; assay: Granzyme B ELISpot assay with purified B-CLL cells; conditions: data not shown
Description: Elispot assays for human Granzyme B and Perforin. Human Granzyme B and human Perforin Elispot kits were purchased from Cell Sciences (Canton, Mass.). PVDF-bottomed 96-well plates were purchased from Millipore (Bedford, Mass.). The assays were performed according to the manufacturer's protocol. Briefly, plates were prepared by adding the capture antibody and blocking with 2% skim milk in PBS, then cells were resuspended in AIM-V medium, plated (100 μl/well), and CpG ODN (2.5 μg/ml), IL-21 (100 ng/ml) or both were added and cultured for 16 hours. Freshly isolated PBMC stimulated with PHA (10 μg/ml) for Granzyme B detection and PMA (1 ng/ml) plus lonomycin (500 ng/ml; all from Sigma, St. Louis, Mo.) for Perforin detection served as positive controls. After culture, the detection antibody was added and plates incubated for 1.5 hours. Streptavidin-alkaline phosphatase was distributed, and plates incubated for 1 hr. Finally BCIP/NBT buffer was added and color was allowed to develop for 10 minutes at room temperature followed by rinsing with distilled water. Plates were dried completely, and spots read on an Immunospot Series 1 Analyzer and counted using Immunospot 3 software, both from C.T.L. Cellular Technology Ltd. (Cleveland, Ohio).

[3] = tested on: B-CLL cells; assay: Flow cytometric apoptosis / cell survival assay (Annexin V, PI) of B-CLL cells; conditions: combined with CpG ODN; IL-2 100 U/ml, 4 days
Description: Apoptosis and cell survival assay. Cells were harvested at the indicated time points by staining all cells from a given well with mAb for CD19, CD5 and FITC-labeled Annexin V (BD Biosciences, San Diego, Calif.). A predetermined number of calibration beads (CaliBRITE™ Beads, BD Biosciences, San Diego, Calif.) were then added to each sample to allow for normalization of cell counts in different samples at different time points.
Flow cytometric apoptosis assays. Cells were stained with Annexin V (BD Biosciences, San Diego, Calif.), or cell-permeable fluorogenic substrates specific for Granzyme B or Caspase 6 for 1 hour at room temperature according to the manufacturer's instructions (Oncolmmunin, Gaithersburg. Md.). A pre-determined number of calibration beads (CaliBRITE™ Beads, BD Biosciences, San Diego, Calif.) was added to each sample to allow for normalization of cell counts at different time points. Propidium iodide at 1 μg/ml was added just prior to flow cytometric analysis. The count of viable cells rather than the count of apoptotic cells was used for the calculation of cell survival because of concerns some non-viable cells may have undergone lysis and not have been available for counting. Absolute cell survival was expressed as percentage of viable cell counts relative to initial plating counts.

For “IL-2: IL-2 purchased from Peprotech, final concentration 100 U/ml”, the “Granzyme B(+) B-CLL cells, flow cytometry gating on CD19(+)” value [1] was “not induced”, the “Granzyme B secretion by B-CLL cells, IL-2 substituted for IL-21” value [2] was “did not induce secretion of Granzyme B” and the “apoptosis of B-CLL cells, IL-2 in place of IL-21” value [3] was “did not induce apoptosis; also recorded: nor did it induce B-CLL cell apoptosis”.
